Data from patent US20090258071A1, “COMPOSITIONS AND METHODS FOR PH TARGETED DRUG DELIVERY” (Labopharm, Inc., priority 2006, published 2009).

Key:
[1] = 10 mg/kg oral, mice; FIG. 5
[2] = tested on: Caco-2 monolayer; experiment: Caco-2 monolayer transport apical to basolateral, second study; conditions: 1, 5, 10 and 25 μM, 120 minutes at 37° C., FIG. 10

**Q.** With CCc1c2c(nc3ccc(O)cc13)-c1cc3c(c(=O)n1C2)COC(=O)[C@]3(O)CC [SN-38, 7-ethyl-10-hydroxy-camptothecin] as the molecule, how does the “delivery of SN-38 to plasma” value [1] read?
**A.** The value was “did not appear to be delivered to the plasma”.

**Q.** And the “flux / permeability of SN-38 across the monolayer as a function of concentration” value [2]?
**A.** Its value is “approximately the same and did not increase with an increase in concentration”.
